Test results: ChEMBL document CHEMBL3860087, “New Broad-Spectrum Antibacterial Amphiphilic Aminoglycosides Active against Resistant Bacteria: From Neamine Derivatives to Smaller Neosamine Analogues” (J Med Chem, 2016)

What was measured:
Escherichia coli = settings: ATCC 25922
Staphylococcus aureus = settings: 1

GENTAMICIN
MIC (Escherichia coli): 0.5 µg/mL
MIC (Staphylococcus aureus): 0.5 µg/mL
